Tests used:
Type in all cases: biochemical
[1] = target: T1, α-chymotrypsin (bovine pancreatic) (Bos taurus, UniProt P00766); assay: α-Chymotrypsin inhibition; conditions: Table 4h
T1 construct: purchased Sigma-Aldrich
Procedure: α-Chymotrypsin assays were performed in 50 mM Tris buffer pH 7.5 with 0.01% Triton-X. Inhibitor and 0.001 mg/mL enzyme were incubated at their final concentration for 10 min before the reaction was initiated by the addition of 200 μM N-succinyl-Ala-Ala-Pro-Phe p-nitroanilide and monitored at 410 nm.
(§1) To assess the selectivity of the new molecules we determined Ki values against three common serine proteases, Trypsin, Elastase and α-Chymotrypsin, as well as that of a class A β-lactamase, CTX-M-9 (Table 10) (Pouvreau L, et al. (1998), FEBS Lett 423:167-172; Del Mar E G, et al. (1980), Biochemistry 19:468-472; Rodriguez-Martinez J A, et al. (2009), Biotechnol Lett 31:883-887; Chen Y, et al. (2005), J Mol Biol 348:349-362).

Chains of the proteins cited; added tags and fusions are not shown. Residues count along the entry.
UniProt Q9L5C8, 29-291: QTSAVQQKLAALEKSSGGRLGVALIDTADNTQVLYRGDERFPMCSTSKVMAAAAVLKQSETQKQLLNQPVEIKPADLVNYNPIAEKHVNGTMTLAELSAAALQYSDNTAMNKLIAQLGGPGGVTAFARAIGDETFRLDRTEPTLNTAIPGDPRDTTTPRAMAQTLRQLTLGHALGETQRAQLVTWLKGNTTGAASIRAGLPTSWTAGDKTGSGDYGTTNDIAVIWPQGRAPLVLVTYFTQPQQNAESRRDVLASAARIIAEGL

[2] = system: Trypsin; assay: Trypsin inhibition; conditions: Table 4h
[3] = system: Elastase; assay: Elastase inhibition; conditions: Table 4h
From the text: as §1

[4] = target: CTX-M-9 β-lactamase (Escherichia coli, UniProt Q9L5C8); conditions: Table 4h, CTX-M-9 vs AmpC
Procedure: Reactions were initiated by the addition of 0.3 nM enzyme and monitored at 405 nm.
as §1

Substance: Pinacol(chloromethanesulfonylamino)methaneboronate [CR70]
- Selectivity vs AmpC (comparison of IC50 values) [1]: 581
- Selectivity vs AmpC (comparison of IC50 values) [2]: 2086
- Selectivity vs AmpC (comparison of IC50 values) [3]: 7
- Selectivity vs AmpC (comparison of IC50 values) [4]: 10

— patent US9371337B2, “β-lactamase inhibitors” (The Regents of the University of California, priority 2011, dated 2016)
